Biological target: full-length ATR (Homo sapiens (Human), UniProt Q13535)
Assay: ATR Inhibition Assay (radioactive-phosphate incorporation)
Assay type: biochemical
Details: read-out: ATR Ki

Protein sequences, listed by entry. Tags and fused reporters are not part of them.
UniProt Q13535, whole entry: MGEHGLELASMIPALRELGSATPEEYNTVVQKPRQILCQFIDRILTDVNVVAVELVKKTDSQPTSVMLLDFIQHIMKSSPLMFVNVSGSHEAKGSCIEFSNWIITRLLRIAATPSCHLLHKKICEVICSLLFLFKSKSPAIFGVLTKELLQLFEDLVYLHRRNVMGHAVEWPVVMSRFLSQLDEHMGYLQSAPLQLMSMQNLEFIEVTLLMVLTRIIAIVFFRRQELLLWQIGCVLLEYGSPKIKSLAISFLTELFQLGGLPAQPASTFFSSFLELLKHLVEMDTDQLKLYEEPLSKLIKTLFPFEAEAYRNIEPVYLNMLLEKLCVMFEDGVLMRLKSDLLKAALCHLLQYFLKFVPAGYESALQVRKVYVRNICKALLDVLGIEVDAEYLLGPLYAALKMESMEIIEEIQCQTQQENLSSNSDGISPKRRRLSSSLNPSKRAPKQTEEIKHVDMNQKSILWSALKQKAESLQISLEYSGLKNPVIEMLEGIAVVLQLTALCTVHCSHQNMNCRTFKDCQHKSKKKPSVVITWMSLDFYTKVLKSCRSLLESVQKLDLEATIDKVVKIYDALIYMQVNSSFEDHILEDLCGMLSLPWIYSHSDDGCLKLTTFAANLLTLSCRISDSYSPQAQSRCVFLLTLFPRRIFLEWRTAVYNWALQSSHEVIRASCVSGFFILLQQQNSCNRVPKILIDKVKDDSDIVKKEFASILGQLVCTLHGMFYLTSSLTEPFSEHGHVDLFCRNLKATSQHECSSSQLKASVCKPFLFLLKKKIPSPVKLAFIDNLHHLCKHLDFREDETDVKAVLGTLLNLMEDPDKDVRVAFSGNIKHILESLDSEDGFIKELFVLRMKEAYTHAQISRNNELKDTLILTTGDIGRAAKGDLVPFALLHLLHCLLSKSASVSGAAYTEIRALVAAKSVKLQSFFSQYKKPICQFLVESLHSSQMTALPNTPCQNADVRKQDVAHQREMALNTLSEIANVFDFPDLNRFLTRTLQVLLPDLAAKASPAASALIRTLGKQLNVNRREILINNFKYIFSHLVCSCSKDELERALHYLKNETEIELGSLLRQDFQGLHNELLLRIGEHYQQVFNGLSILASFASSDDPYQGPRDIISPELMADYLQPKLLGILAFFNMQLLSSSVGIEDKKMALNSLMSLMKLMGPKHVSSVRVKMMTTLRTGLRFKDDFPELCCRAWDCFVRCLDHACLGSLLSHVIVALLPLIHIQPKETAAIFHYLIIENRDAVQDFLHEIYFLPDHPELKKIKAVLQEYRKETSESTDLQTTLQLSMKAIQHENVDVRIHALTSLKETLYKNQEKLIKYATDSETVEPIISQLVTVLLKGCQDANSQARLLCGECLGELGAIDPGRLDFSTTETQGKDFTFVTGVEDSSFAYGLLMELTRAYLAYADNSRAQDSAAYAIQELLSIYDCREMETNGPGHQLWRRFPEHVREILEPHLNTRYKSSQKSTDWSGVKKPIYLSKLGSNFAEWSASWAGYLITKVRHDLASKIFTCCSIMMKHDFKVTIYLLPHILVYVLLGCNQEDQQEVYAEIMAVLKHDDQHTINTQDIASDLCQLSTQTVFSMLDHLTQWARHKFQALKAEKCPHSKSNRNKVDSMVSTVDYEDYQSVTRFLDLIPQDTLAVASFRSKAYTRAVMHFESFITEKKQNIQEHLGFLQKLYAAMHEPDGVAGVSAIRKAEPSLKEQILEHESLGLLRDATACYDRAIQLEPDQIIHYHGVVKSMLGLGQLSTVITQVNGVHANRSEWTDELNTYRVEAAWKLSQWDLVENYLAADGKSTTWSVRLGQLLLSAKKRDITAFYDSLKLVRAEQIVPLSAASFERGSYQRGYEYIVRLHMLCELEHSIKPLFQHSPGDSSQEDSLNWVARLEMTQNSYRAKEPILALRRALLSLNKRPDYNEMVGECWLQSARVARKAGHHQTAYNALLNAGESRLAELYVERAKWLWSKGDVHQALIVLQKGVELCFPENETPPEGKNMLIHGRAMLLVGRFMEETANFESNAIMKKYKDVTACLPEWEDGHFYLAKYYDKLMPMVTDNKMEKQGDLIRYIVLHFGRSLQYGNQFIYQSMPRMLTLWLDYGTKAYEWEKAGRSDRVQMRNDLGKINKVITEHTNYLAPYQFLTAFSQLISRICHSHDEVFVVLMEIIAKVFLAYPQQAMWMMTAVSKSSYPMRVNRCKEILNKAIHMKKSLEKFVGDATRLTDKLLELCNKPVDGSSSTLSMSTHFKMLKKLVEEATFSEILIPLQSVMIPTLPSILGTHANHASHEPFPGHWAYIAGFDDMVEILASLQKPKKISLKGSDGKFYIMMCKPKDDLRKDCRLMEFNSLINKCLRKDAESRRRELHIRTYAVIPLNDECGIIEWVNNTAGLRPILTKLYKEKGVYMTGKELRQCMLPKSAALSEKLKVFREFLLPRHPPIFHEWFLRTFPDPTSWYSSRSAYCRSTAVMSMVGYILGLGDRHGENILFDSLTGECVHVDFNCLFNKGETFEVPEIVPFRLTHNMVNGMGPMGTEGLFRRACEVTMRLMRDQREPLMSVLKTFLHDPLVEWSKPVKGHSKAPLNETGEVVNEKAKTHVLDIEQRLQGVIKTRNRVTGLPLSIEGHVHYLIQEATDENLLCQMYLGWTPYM

`Nc1ncc(-c2ccc(C(=O)N3CCCNCC3)cc2)nc1-c1nc2ccccc2o1` and `Nc1ncc(-c2ccc(C(=O)N3CCCNCC3)cc2)nc1-c1nc2ccccc2s1` fall in the same range of Ki: 10 to 100 nM for the first, 10 to 100 nM for the second.

`CC(C)S(=O)(=O)c1ccc(-c2cnc(N)c(-c3nnc(-c4ccc(CNC(CO)(CO)CO)cc4)o3)n2)cc1` and `CC(C)S(=O)(=O)c1ccc(-c2cnc(N)c(-c3cc(-c4ccc(CNCCOCCO)cc4)no3)n2)cc1` cannot be ordered by Ki: < 10 nM for the first, < 10 nM for the second.

First: CC(C)(C)OC(=O)N1CCCN(C(=O)c2ccc(-c3cnc(N)c(-c4nc5ccccc5s4)n3)cc2)CC1
Second: CCOP(=O)(OCC)N1CCCN(C(=O)c2ccc(-c3cnc(N)c(-c4nnc(-c5ccccc5)o4)n3)cc2F)CC1
The Ki of the first is higher: 10 to 100 nM for the first, < 10 nM for the second. The second binds more tightly here.

In the case of `Nc1ncc(-c2ccccc2CO)nc1-c1nnc(-c2ccccc2)o1`, the Ki is reported as 10 to 100 nM.
